Measurements reported in patent publication EP0072987A1 (priority 1981, dated 1983).

Test system: Tumorart PS 2684
Assay: Survival of tumour-bearing mice, NCI protocol 1200 (T/C)
Format: in vivo, Mäusen
Details: single injections on 9 days, tumour i.p. 10^6 Zellen/Maus

`CN1CCCOP1(=O)N(CC(Cl)CO)CC1CO1` (stereo not shown) was tested, and the T/C-Wert (Verabreichte Dosis 25 mg/kg) was 157, the T/C-Wert (Verabreichte Dosis 50 mg/kg) was 180 and the T/C-Wert (Verabreichte Dosis 100 mg/kg) was 300. It also gave a T/C-Wert (Verabreichte Dosis 12,5 mg/kg) of 132.
